In patent US9278137B2, “Polymeric conjugates of active principles, their process of preparation and their polymeric intermediates” (SANOFI, priority 2010, dated 2016):

Tests used:
[1] = Nanoparticle size (hydrodynamic diameter) by dynamic light scattering (DLS)
[2] = Nanoparticle size by Malvern Nanosizer (Quasi Elastic Light Scattering)
[3] = nanoparticles in deionized water, dispersion diluted ten fold
[4] = nanodispersion with Solutol HS15 and sodium deoxycholate, before evaporation

| Substance | Mean diameter (using DLS) ([1]; nanodispersion 10 mg/mL in WFI) [nm] | PDI (DLS) ([1]; nanodispersion 10 mg/mL in WFI) | average size ([2]; after evaporation, all concentrations between 10 and 200 mg/g) [nm] | size of the nanoparticles ([2]; after evaporation, final nanodispersion concentration between 10 and 200 mg/g) [nm] | PDI [2, 4] | average size [2, 4] [nm] | size of nanoparticles [2, 4] [nm] | mean diameter (DLS) ([1]; 5 mg/ml conjugate in deionized water, sample filtered (1,2 μm)) [nm] | size distribution over time (DLS) ([1]; for 3 weeks (T 0 vs T+3 weeks)) | mean diameter (TEM) [3] [nm] |
| --- | --- | --- | --- | --- | --- | --- | --- | --- | --- | --- |
| mPEG2000-PLA10000-Y-succinyl-2′-cabazitaxel [VIII′] | 43 | 0.14 | 30 | ≤ 100 | 0.14 | 30 | ≤ 100 | – | – | – |
| mPEG2000-PLA14000-Y-succinyl-2′-cabazitaxel [VIII] | – | – | – | – | – | – | – | 62 | remained unchanged | 27 |
